The entries are a selection whose mix differs from that of the whole data set. The source made the active and inactive calls.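 How the source made its calls: active means growth inhibition of the mutant yeast at or above 50%; inactive means the rest.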

The experiment in a line: growth inhibitors of tim23-1 mutant yeast, primary screen, luminescence, uHTS (AID 463212).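 Further: temperature-sensitive mutant grown at 25 °C; plate controls were DMSO-treated mutant yeast for no effect and medium wells lacking yeast for full effect.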 To be noted: S. cerevisiae tim23-1 growth, BacTiter-Glo luminescence, 24 h; at 20 µM; hits give high values.
With `O=[N+]([O-])c1cc([N+](=O)[O-])c(Nc2nnnn2CCO)c([N+](=O)[O-])c1`, the inhibition (in general, the change of the read-out against control, counted positive when it falls) is inactive: 16.9%.
As to `CC1=C2N=C(C=C3N=C(C(C)=C4[N-][C@@](C)([C@@H]5N=C1[C@](C)(CCC(=O)NC[C@@H](C)OP(=O)([O-])O[C@H]1[C@@H](O)[C@@H](n6cnc7cc(C)c(C)cc76)O[C@@H]1CO)[C@H]5CC(N)=O)[C@@](C)(CC(N)=O)[C@@H]4CCC(N)=O)[C@@](C)(CC(N)=O)[C@@H]3CCC(N)=O)C(C)(C)[C@@H]2CCC(N)=O.[C-]#N.[Co+3]`, the inhibition is inactive: 25.3%.
For `CCOC(=O)C(CC)C1=NC(C)(C)Cc2ccccc21.O=[N+]([O-])c1cc([N+](=O)[O-])c(O)c([N+](=O)[O-])c1` (stereo unspecified), the inhibition was inactive: 10.5%.
As for `CP(=O)(Nc1ccc(SC(F)(F)F)cc1)Oc1ccccc1` (stereo unspecified), the figure is inactive: 29.6%; as for `CCCOc1ccc(NP(C)(=O)Oc2ccc(Cl)cc2)cc1` (stereo unspecified), inactive: 19.2%; as for `CN1CCCCC1COC(=O)C1(O)c2ccccc2CCc2ccccc21` (stereo unspecified), inactive: -1.22%.
As for `COc1ccccc1OP(C)(=O)Nc1c(C)cccc1C` (stereo unspecified), the figure is inactive: -1.38%; as for `O=[N+]([O-])c1cc([N+](=O)[O-])c(-n2nnc3ccccc32)c([N+](=O)[O-])c1`, inactive: 20.9%.
For the molecule `Cc1nc2ccc3ccccc3c2s1.O=[N+]([O-])c1cc([N+](=O)[O-])c(O)c([N+](=O)[O-])c1`, the inhibition was inactive: 13.5%.
Turning to `O=[N+]([O-])c1cc([N+](=O)[O-])c(-c2cnn(-c3ccccc3)c2)c([N+](=O)[O-])c1`, the inhibition was inactive: -73.6%.
Take `Cc1cc(C)cc(OP(C)(=O)Nc2ccc(C)cc2C)c1` (stereo unspecified): the inhibition was inactive: 15.5%.
As for `CCOC(=O)c1ccc(NP(C)(=O)Oc2cc(C)cc(C)c2)cc1` (stereo unspecified), the figure is inactive: 25.7%; as for `COc1ccccc1OP(C)(=O)Nc1cccc(Br)c1` (stereo unspecified), inactive: 12.5%; as for `CP(=O)(Nc1cccc(Br)c1)Oc1ccccc1` (stereo unspecified), inactive: 19.1%.
As for `Cc1cc(C)cc(OP(C)(=O)Nc2ccccn2)c1` (stereo unspecified), the inhibition was inactive: 13.3%.
`Cc1ccc(C)c(NP(C)(=O)Oc2ccccc2)c1` (stereo unspecified): the inhibition is inactive: -2.63%.
With `O=C(O)c1cccc(Nc2c([N+](=O)[O-])cc([N+](=O)[O-])cc2[N+](=O)[O-])c1`, the inhibition was inactive: 5.79%.
Take `CC1=NCCc2c1[nH]c1ccccc21.O=[N+]([O-])c1cc([N+](=O)[O-])c(O)c([N+](=O)[O-])c1`: the inhibition is inactive: 15.5%.
As to `CC(C)(C)c1ccc(OP(C)(=O)Nc2ccc(SC(F)(F)F)cc2)cc1` (stereo unspecified), the inhibition was inactive: 34.4%.
For `Cc1cccc(C)c1OP(C)(N)=O` (stereo unspecified), the inhibition is inactive: 7.26%.
On to `O=[N+]([O-])c1cc([N+](=O)[O-])c(Nc2cccnc2)c([N+](=O)[O-])c1`, for which the inhibition is inactive: 45.7%.
In the case of `COc1ccccc1OP(C)(=O)Nc1cc(Cl)ccc1C` (stereo unspecified) it was inactive: 10.3%; in that of `COc1ccc(OP(C)(=O)Nc2cccc(F)c2)cc1` (stereo unspecified), inactive: 19.9%; in that of `Cc1cc(C)cc(OP(C)(N)=O)c1` (stereo unspecified), inactive: 2.69%.
In the case of `CCOC(=O)c1ccc(NP(C)(=O)Oc2ccccc2)cc1` (stereo unspecified) it was inactive: 9.37%.
Turning to `COc1ccccc1OP(C)(=O)Nc1ccc(C)cc1` (stereo unspecified), the inhibition was inactive: 7.31%.
For `Cc1ccc(NP(C)(=O)Oc2ccccc2)c(C)c1` (stereo unspecified), the inhibition was inactive: 13.6%.
In the case of `CCN(CC)CCCOC(=O)C(O)(c1ccccc1)c1ccccc1`, the inhibition was inactive: 0.484%.
Consider `CCc1ccc(OP(C)(=O)N2CCN(c3ccc([N+](=O)[O-])cc3)CC2)cc1` (stereo unspecified), for which the inhibition is inactive: 26.9%.
Consider `CP(=O)(NC(=O)Nc1ccccc1)Oc1ccccc1` (stereo unspecified), for which the inhibition is inactive: -10.2%.
In the case of `Cc1cc(C)cc(OP(C)(=O)Nc2ccc(SC(F)(F)F)cc2)c1` (stereo unspecified), the inhibition was inactive: 31.4%.
In the case of `CP(=O)(Nc1ccc(SC(F)(F)F)cc1)Oc1ccc(Cl)cc1` (stereo unspecified), the inhibition is inactive: 28.7%.
On to `Cc1cccc(C)c1OP(C)(=O)Nc1ccc(SC(F)(F)F)cc1` (stereo unspecified), for which the inhibition is inactive: 36.3%.
As for `CP(=O)(Oc1ccccc1)OC(c1ccccc1)C(F)(F)F` (stereo unspecified), the figure is inactive: 14.3%; as for `CP(=O)(Nc1ccccn1)Oc1ccc(Cl)cc1` (stereo unspecified), inactive: 13.1%.
Regarding `CCOP(C)(=S)SCC(=O)NC(C)C(=O)O` (stereo unspecified), the inhibition is inactive: 19.3%.
As to `O=[N+]([O-])c1cc([N+](=O)[O-])c(O)c([N+](=O)[O-])c1.c1ccc(Oc2ccncc2)cc1`, the inhibition is inactive: 1.56%.
As for `CCOC(=O)c1ccc(NP(C)(=O)Oc2ccc(OC)cc2)cc1` (stereo unspecified), the inhibition is inactive: 17.7%.
Turning to `COc1ccccc1OP(C)(=O)Nc1ccccc1` (stereo unspecified), the inhibition is inactive: -0.796%.
As for `CP(=O)(Nc1ccccc1Br)Oc1ccccc1` (stereo unspecified), the figure is inactive: -4.54%.
`CP(=S)(Nn1cnnc1)Oc1ccccc1` (stereo unspecified): the inhibition was inactive: 5.87%.
Take `CP(=O)(OC12CC3CC(CC(C3)C1)C2)OC12CC3CC(CC(C3)C1)C2`: the inhibition is inactive: 43.9%.
Take `CCOC(=O)c1ccc(NP(C)(=O)Oc2ccc(Cl)cc2)cc1` (stereo unspecified): the inhibition was inactive: 27.5%.
Take `Nc1ccc2c(ccc3cccnc32)n1.O=[N+]([O-])c1cc([N+](=O)[O-])c(O)c([N+](=O)[O-])c1`: the inhibition was inactive: -6.07%.
In the case of `CP(=O)(Oc1ccccc1)N1CCOC1=O` (stereo unspecified) it was inactive: 14.5%; in that of `CCc1ccc(OP(C)(=O)Nc2cccnc2)cc1` (stereo unspecified), inactive: 6.74%; in that of `COc1ccccc1OP(C)(=O)Nc1c(C)n(C)n(-c2ccccc2)c1=O` (stereo unspecified), inactive: 4.04%.
Turning to `O=C(OCCCN1CCCC1)C(O)(c1ccccc1)C1CCCCC1` (stereo unspecified), the inhibition was inactive: -23.3%.
`CCN(CC)CC(O)COC(=O)C(O)(c1ccccc1)C1CCCCC1` (stereo unspecified): the inhibition was inactive: 6.72%.
For the molecule `COc1ccc(OP(C)(=O)Nc2ccc(Br)cc2)cc1` (stereo unspecified), the inhibition is inactive: 14.3%.
Consider `CN(C)C(=O)c1c([N+](=O)[O-])cc([N+](=O)[O-])cc1[N+](=O)[O-]`, for which the inhibition was inactive: 18%.
As for `CP(=O)(Nc1ccc(Cl)cc1)Oc1ccc(F)cc1` (stereo unspecified), the figure is inactive: 25.9%; as for `CC(C)(C)c1ccc(OP(C)(=O)O)cc1`, inactive: 18.2%; as for `COc1ccccc1OP(C)(=O)Nc1ccccc1Br` (stereo unspecified), inactive: 10.7%.
For the molecule `CN(C)CCOC(=O)C(O)(c1ccccc1)C1CCCC1` (stereo unspecified), the inhibition is inactive: -1.43%.
In the case of `COc1ccccc1OP(C)(=O)Nc1ccc(Br)cc1` (stereo unspecified), the inhibition is inactive: 8.86%.

(Values after PubChem BioAssay AID463212 (Sanford-Burnham Center for Chemical Genomics, 2010).)
